Measured values taken from patent US8367726B2, “Acid salt of tolterodine having effective stability for transdermal drug delivery system” (SK Chemicals Co., Ltd., priority 2008, dated 2013).

Experiment: In vitro penetration test, Frantz cell mounted with hairless mouse skin
Conditions: 10 mg/mL in propylene glycol, 32° C.
Method: I mL of tolterodine salt was added onto a Frantz cell, which was mounted with a hairless mouse skin. Then, the amount of tolterodine penetrated through the skin at 32° C. was quantitated and its cumulative amount was measured.

Substance: Tolterodine Glucolate
- Cumulative amount of tolterodine penetrated through the skin (0 hr): 0.0 µg
- Cumulative amount of tolterodine penetrated through the skin (3 hr): 1.2 µg
- Cumulative amount of tolterodine penetrated through the skin (6 hr): 4.7 µg
- Cumulative amount of tolterodine penetrated through the skin (9 hr): 5.1 µg
- Cumulative amount of tolterodine penetrated through the skin (12 hr): 8.3 µg
